Experimental data: PubChem BioAssay AID1117328 (Cheminformatics & Chemogenomics Research Group (CCRG), …, 2015)

The chains behind the UniProt entries cited, without tags or fusion partners.
UniProt P23443, whole entry, looked up: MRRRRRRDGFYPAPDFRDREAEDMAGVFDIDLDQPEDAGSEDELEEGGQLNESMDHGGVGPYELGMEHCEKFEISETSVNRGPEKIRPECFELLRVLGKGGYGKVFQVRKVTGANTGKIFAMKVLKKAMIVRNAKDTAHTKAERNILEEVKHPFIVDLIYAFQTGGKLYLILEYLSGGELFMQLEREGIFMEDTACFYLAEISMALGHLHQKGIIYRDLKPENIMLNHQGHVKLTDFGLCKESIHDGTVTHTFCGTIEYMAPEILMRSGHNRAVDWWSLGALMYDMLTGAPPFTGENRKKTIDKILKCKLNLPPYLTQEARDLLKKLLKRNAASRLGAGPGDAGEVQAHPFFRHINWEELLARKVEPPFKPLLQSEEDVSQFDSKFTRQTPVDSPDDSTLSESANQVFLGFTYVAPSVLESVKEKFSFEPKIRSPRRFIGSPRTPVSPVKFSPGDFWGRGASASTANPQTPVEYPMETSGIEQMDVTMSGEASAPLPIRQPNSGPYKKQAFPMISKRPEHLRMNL

Target: Ribosomal protein S6 kinase beta-1 (Homo sapiens) (UniProt P23443)
Assay: inhibition of human S6K1 enzyme activity – biochemical, LANCE Ultra TR-FRET (AID 1117328)
Details: LANCE Ultra TR-FRET kinase assay, p70S6K1; at 20 µM (top of the series)

SMILES: CN(CCCl)CCCl
- inhibition: 52.4%
